Values of other authors in PMC140124 (Biological Procedures Online, 1998).
Read-outs that look alike come from different tables or passages of the source.

Conditions: ref [1]

## Tyr-Gly-Gly-Phe-Leu
Absence of peptidase inhibitors
  appearance on the serosal side: did not appear on the serosal side
Presence of peptidase inhibitors
  appearance on the serosal side: did not appear on the serosal side
